Results reported in ChEMBL document CHEMBL5532725, “SARS-CoV-2 Main Protease Inhibitors That Leverage Unique Interactions with the Solvent Exposed S3 Site of the Enzyme” (ACS Med Chem Lett, 2024).

Target: Replicase polyprotein 1ab (Severe acute respiratory syndrome coronavirus 2, UniProt P0DTD1)
Test: Inhibition of SARS-CoV-2 MPro preincubated for 30 mins followed by substrate addition by fluorescence based assay

`CC1(C)[C@@H]2[C@@H](C(=O)N[C@H](C#N)C[C@@H]3CCNC3=O)N(C(=O)[C@@H](NC(=O)C(F)(F)F)c3ccc(Cl)c(Cl)c3)C[C@@H]21` showed an IC50 of 25 nM.
